# Laboratory results taken from ChEMBL document CHEMBL1147482, “Novel and potent transforming growth factor beta type I receptor kinase domain inhibitor: 7-amino 4-(2-pyridin-2-yl-5,6-dihydro-4H-pyrrolo[1,2-b]pyrazol-3-yl)-quinolines” (Bioorg Med Chem Lett, 2004).
# Amino acid sequences for entries named in this document (tags omitted).
# UniProt Q16539, whole entry: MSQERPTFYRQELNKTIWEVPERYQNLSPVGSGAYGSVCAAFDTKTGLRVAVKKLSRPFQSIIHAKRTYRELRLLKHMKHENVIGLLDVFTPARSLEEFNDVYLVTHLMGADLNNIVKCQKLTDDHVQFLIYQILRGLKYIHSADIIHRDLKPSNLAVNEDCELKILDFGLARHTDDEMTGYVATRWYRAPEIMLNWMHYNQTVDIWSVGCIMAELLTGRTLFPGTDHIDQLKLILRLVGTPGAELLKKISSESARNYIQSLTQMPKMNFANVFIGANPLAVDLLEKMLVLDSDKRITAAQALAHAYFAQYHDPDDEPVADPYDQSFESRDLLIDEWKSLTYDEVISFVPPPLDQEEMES
# Target: Mitogen-activated protein kinase 14 (Homo sapiens, UniProt Q16539)
# Experiment: Inhibitory activity against Mitogen-activated protein kinase p38
smiles,measurement,value
c1ccc(-c2n[nH]cc2-c2ccnc3ccccc23)nc1,IC50,51 µM
